# Apparent affinities of Ab-91 variants for a coronavirus HR2 peptide

Source: Engelhart et al. 2022 (doi:10.1038/s41597-022-01779-4), MIT Lincoln Laboratory and A-Alpha Bio; data file from the FLAb repository.

Target: peptide PDVDLGDISGINAS, taken from heptad repeat 2 (HR2) of SARS-CoV-2 spike.

Parent scFv Ab-91: VL joined to VH by a (GGGGS)3 linker. Changes lie in the heavy chain CDRs alone.
VL: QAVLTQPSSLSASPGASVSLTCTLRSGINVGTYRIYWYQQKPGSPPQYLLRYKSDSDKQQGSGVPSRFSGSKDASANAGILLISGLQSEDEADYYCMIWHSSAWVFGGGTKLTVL
VH: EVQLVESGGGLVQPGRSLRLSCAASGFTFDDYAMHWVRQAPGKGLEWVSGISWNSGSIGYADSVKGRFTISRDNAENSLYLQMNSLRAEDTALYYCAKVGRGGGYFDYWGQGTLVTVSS

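Variants in AAYL51 differ from the parent at up to three CDR positions; double and triple changes were sampled at random. In AlphaSeq, yeast of one mating type display the scFv and yeast of the other type display the target. Binding brings cells together so that they mate, and sequencing counts the barcode pairs among the diploids. A regression on co-assayed BCL2-family reference pairs converts the normalised counts of each replicate to an apparent Kd. There are three technical replicates.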

Positions count from residue 1 of the parent VH; G26Y puts Y in place of G.
Values are log10 of the apparent Kd in nM; lower means stronger binding.
Replicates are averaged; those with no signal do not enter the mean.
Where no diploid with the target was found in that replicate, the entry reads "nd": below detection, most likely a poor binder, though not proof of it.

{"changes": "G26Y/G100A/D107E", "log10 Kd, replicates": "nd / 4.32 / nd", "log10 Kd (nM), mean": "4.32", "empty controls": "0 of 9"}
{"changes": "S55G/S57N", "log10 Kd, replicates": "1.52 / 1.73 / 1.57", "log10 Kd (nM), mean": "1.61", "empty controls": "5 of 9 (4.54)"}
{"changes": "F29P/W53D/G103F", "log10 Kd, replicates": "nd / nd / nd", "log10 Kd (nM), mean": "nd", "empty controls": "1 of 9 (3.21)"}
{"changes": "T28A/Y32W/G50W", "log10 Kd, replicates": "3.78 / nd / nd", "log10 Kd (nM), mean": "3.78", "empty controls": "1 of 9 (3.36)"}
{"changes": "T28S/I58G/G104W", "log10 Kd, replicates": "5.32 / 4.37 / 5.52", "log10 Kd (nM), mean": "5.07", "empty controls": "2 of 9 (4.51)"}
{"changes": "W53P/S57A/R101G", "log10 Kd, replicates": "0.91 / 1.04 / 0.30", "log10 Kd (nM), mean": "0.75", "empty controls": "5 of 9 (4.59)"}
{"changes": "F29G/V64G/D107I", "log10 Kd, replicates": "nd / nd / nd", "log10 Kd (nM), mean": "nd", "empty controls": "0 of 9"}
{"changes": "T28G/G100A", "log10 Kd, replicates": "3.13 / 3.71 / 4.05", "log10 Kd (nM), mean": "3.63", "empty controls": "9 of 9 (5.56)"}
{"changes": "S55A/K65A/G100M", "log10 Kd, replicates": "2.65 / 2.66 / 2.67", "log10 Kd (nM), mean": "2.66", "empty controls": "4 of 9 (4.69)"}
{"changes": "F29D/G56H/D107N", "log10 Kd, replicates": "nd / nd / nd", "log10 Kd (nM), mean": "nd", "empty controls": "0 of 9"}
{"changes": "I58N/G102K/D107Q", "log10 Kd, replicates": "nd / nd / nd", "log10 Kd (nM), mean": "nd", "empty controls": "1 of 9 (4.18)"}
{"changes": "D30T/Y60L/V99N", "log10 Kd, replicates": "nd / nd / nd", "log10 Kd (nM), mean": "nd", "empty controls": "3 of 9 (4.22)"}
{"changes": "S52C/G59Y/F106C", "log10 Kd, replicates": "nd / nd / nd", "log10 Kd (nM), mean": "nd", "empty controls": "1 of 9 (3.88)"}
{"changes": "G26C/F27K/G104H", "log10 Kd, replicates": "nd / nd / nd", "log10 Kd (nM), mean": "nd", "empty controls": "0 of 9"}
{"changes": "S52P/V99F/R101E", "log10 Kd, replicates": "nd / 3.70 / nd", "log10 Kd (nM), mean": "3.70", "empty controls": "0 of 9"}
{"changes": "Y32K/W53F/V64T", "log10 Kd, replicates": "nd / nd / nd", "log10 Kd (nM), mean": "nd", "empty controls": "3 of 9 (3.92)"}
{"changes": "I51N/S55Y/D107V", "log10 Kd, replicates": "nd / nd / nd", "log10 Kd (nM), mean": "nd", "empty controls": "0 of 9"}
{"changes": "F27K/S57A/Y105D", "log10 Kd, replicates": "4.60 / nd / nd", "log10 Kd (nM), mean": "4.60", "empty controls": "1 of 9 (3.60)"}
{"changes": "F27I/I51Y/G59T", "log10 Kd, replicates": "nd / 4.62 / nd", "log10 Kd (nM), mean": "4.62", "empty controls": "1 of 9 (3.95)"}
{"changes": "D30F/Y60P/G102I", "log10 Kd, replicates": "nd / nd / nd", "log10 Kd (nM), mean": "nd", "empty controls": "3 of 9 (4.09)"}
{"changes": "D62L/V64Y/D107S", "log10 Kd, replicates": "2.79 / 2.73 / nd", "log10 Kd (nM), mean": "2.76", "empty controls": "0 of 9"}
{"changes": "F29M/H35K/S52N", "log10 Kd, replicates": "nd / 6.02 / nd", "log10 Kd (nM), mean": "6.02", "empty controls": "2 of 9 (4.44)"}
{"changes": "V64F/Y105P", "log10 Kd, replicates": "2.20 / 1.96 / 1.59", "log10 Kd (nM), mean": "1.92", "empty controls": "6 of 9 (5.08)"}
{"changes": "Y32D/M34Q/G50D", "log10 Kd, replicates": "nd / nd / nd", "log10 Kd (nM), mean": "nd", "empty controls": "0 of 9"}
{"changes": "F29A/D31H/I58Y", "log10 Kd, replicates": "nd / nd / nd", "log10 Kd (nM), mean": "nd", "empty controls": "0 of 9"}

A selection of 4 entries from above:

{"changes": "F27K/S57A/Y105D", "log10 Kd, replicates": "4.60 / nd / nd", "log10 Kd (nM), mean": "4.60", "empty controls": "1 of 9 (3.60)"}
{"changes": "Y32D/M34Q/G50D", "log10 Kd, replicates": "nd / nd / nd", "log10 Kd (nM), mean": "nd", "empty controls": "0 of 9"}
{"changes": "I58N/G102K/D107Q", "log10 Kd, replicates": "nd / nd / nd", "log10 Kd (nM), mean": "nd", "empty controls": "1 of 9 (4.18)"}
{"changes": "S55A/K65A/G100M", "log10 Kd, replicates": "2.65 / 2.66 / 2.67", "log10 Kd (nM), mean": "2.66", "empty controls": "4 of 9 (4.69)"}

As a blank, each scFv also met three strains without target: over library AAYL51, 21% of these pairings were detected, typically at 4.54 and seldom below 3.26. Also given: how often the same scFv was detected with the empty control strains, with their mean in brackets.
In this assay the parent's reference entry averaged 1.86; its copy inside this library read 0.88.